Assay [1] relates to rat pheochromocytoma cells transfected with M1 mAChR. The assay can be described thus: Neurite outgrowth in rat pheochromocytoma cells transfected with M1 mAChR. It counts as cell-based. Particulars: 24 hrs, without neurotrophins. The method, then: Rat pheochromocytoma cells transfected with M1 mAChR cells were grown as described in Gurwitz et al, (NeuroReport 6, 485, 1995). For determination of neurite outgrowth, cells plated in six-well plates were used 3-5 days after plating. Growth factors were added 1 day after plating and muscarinic agonists were added for the last 24 hrs.
Cells were observed under an inverted microscope. The percent of cells with neurite longer than cell diameter were scored in three random fields of several hundred cells from each well. Results were expressed as a percent of cells with neurites. Treatments were performed in triplicate cells. Both NGF (50 ng/ml) and EGF (100 ng/ml) were added 1 day after plating. Muscarinic agonists were added 24 hours before scoring.

Assay [2] deals with rat pheochromocytoma cells transfected with the M1 mAChR.
The test system is the same in assay [3]. The method, then:
Confluent rat pheochromocytoma cells transfected with the M1 mAChR cultures were detached with trypsin, washed and plated in 24well, 6-well, 60-mm or 100-mm plates that were precoated with rat tail collagen (Sigma, Israel). Several experiments were performed in serum-free medium. For 3-(4,5-dimethylthiazol-2-yl)-2,5-diphenyl-tetrazolium bromide (MIT) assay, cells (1.5×10^4) were plated in 96-well collagen-precoated plates, in serum-free medium, with or without various drugs for 24 hours. For differentiation, cells were grown in the presence of 1% FCS and 1% HS, with addition of 50 ng/ml NGF for 7 days, to cause full differentiation. […]
Cells were grown and treated on glass coverslips. […] Cells were washed three times with PBS, mounted in a solution of glycerol containing 22 mM 1,4 dizabicyclo(2,2,2)octane (Sigma, Israel) to prevent fading, and viewed for nuclear chromatin morphology with a fluorescence microscope. Apoptotic and viable cells were counted (200 cells per coverslip, each experiment was performed in duplicates).
The TUNEL (Terminal deoxynucleotidyl transferase (TdT) mediated dUTP nick end labeling) method enzymatically labels DNA fragments at the 3′OH ends (representing the DNA strand breaks) with fluorescein-dUPT (Boehringer Mannheim, Germany). […] Evans Blue reagent (diluted 1:2000 in PBS) was added for 5 min and the slides were viewed with fluorescence microscope. […]
The source holds these as a separate data set.

Turning to `C[N+](C)(C)CCOC(N)=O` [carbachol, reference compound], the “Maximal neurite outgrowth response (percent of cells with neurites)” value in assay [1] worked out at 80%. In assay [2], the H2O2-induced toxicity result is recorded as “protect the cells” and the “cell death induced by β-A25-35 (MTT)” value is listed as “significantly attenuated”. In addition, the “apoptotic death during starvation (FACS)” value in assay [3] (24 hrs) was “protected cells from apoptotic death”. In addition, in assay [3] (β-Amyloid25-35 or 1-42), the “β-amyloid increased apoptotic population (FACS)” value is “reduced the apoptotic population significantly”.

(Values after patent US7439251B2, “Methods and compositions for treatment of central and peripheral nervous system disorders and novel compounds useful therefor” (Israel Institute for Biological Research, priority 2002, dated 2008).)
